Results reported in ChEMBL document CHEMBL3352430, “4-Aminopyridyl-based CYP51 inhibitors as anti-Trypanosoma cruzi drug leads with improved pharmacokinetic profile and in vivo potency” (J Med Chem, 2014).

The chains behind the UniProt entries cited, without tags or fusion partners.
UniProt P10635, whole entry: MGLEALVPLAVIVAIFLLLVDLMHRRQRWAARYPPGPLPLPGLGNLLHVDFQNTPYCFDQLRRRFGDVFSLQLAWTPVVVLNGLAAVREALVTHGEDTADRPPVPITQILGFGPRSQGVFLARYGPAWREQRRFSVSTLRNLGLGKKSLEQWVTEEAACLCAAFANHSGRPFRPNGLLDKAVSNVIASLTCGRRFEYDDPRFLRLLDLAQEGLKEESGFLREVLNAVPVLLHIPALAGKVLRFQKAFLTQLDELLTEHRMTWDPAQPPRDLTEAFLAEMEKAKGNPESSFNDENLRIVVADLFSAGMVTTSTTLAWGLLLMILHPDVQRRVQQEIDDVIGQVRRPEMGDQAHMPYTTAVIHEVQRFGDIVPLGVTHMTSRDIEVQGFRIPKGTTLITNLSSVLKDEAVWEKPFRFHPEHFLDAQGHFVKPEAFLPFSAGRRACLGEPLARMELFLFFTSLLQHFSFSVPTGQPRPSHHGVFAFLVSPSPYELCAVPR
UniProt P11712, whole entry: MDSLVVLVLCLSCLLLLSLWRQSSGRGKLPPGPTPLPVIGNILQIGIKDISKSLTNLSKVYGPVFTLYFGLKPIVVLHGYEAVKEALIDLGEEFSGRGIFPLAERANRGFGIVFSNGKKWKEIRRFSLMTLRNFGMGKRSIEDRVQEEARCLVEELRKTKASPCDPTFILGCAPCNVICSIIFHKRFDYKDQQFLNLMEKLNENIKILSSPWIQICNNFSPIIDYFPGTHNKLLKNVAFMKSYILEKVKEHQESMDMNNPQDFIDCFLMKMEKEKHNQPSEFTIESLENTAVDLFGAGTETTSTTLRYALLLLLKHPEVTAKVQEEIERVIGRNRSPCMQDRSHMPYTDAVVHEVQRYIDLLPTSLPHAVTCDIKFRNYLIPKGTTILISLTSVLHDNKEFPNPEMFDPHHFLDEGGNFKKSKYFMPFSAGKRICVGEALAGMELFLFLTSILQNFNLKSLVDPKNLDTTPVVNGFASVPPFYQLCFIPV
UniProt P08684, whole entry: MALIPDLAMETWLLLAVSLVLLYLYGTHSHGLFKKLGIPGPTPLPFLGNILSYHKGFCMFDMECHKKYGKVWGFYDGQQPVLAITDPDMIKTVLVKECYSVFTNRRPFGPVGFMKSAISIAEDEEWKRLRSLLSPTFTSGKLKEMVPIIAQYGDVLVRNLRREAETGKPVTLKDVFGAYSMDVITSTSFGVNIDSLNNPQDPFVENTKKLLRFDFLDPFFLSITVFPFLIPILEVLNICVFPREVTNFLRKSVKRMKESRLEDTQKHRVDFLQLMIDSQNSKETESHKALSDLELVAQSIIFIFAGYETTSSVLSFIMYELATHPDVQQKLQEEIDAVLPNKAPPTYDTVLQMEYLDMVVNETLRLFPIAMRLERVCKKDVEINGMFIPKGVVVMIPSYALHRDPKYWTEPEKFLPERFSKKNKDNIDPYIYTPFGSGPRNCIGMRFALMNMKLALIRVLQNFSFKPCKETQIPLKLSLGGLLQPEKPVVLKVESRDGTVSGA
UniProt P05177, whole entry: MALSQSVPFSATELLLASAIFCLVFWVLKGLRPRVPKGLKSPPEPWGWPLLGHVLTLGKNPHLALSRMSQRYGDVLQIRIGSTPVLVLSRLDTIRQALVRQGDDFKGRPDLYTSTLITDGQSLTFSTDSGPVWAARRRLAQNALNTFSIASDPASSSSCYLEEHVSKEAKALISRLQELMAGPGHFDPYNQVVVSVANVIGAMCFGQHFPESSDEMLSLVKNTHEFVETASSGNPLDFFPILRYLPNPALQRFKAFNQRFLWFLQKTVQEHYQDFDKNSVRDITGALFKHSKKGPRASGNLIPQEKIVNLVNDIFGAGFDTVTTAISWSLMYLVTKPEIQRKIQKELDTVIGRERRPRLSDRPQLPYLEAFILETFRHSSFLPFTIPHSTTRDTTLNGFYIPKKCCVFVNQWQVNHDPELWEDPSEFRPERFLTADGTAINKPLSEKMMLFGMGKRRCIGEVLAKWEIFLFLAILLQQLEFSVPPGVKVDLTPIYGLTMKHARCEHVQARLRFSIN

Assays:
Type in all cases: ADME
Cytochrome P450 2D6 = Cytochrome P450 2D6 (Homo sapiens, UniProt P10635); test: Inhibition of CYP2D6 in human liver microsomes at 1 uM
Cytochrome P450 2C9 = Cytochrome P450 2C9 (Homo sapiens, UniProt P11712); test: Inhibition of CYP2C9 in human liver microsomes at 1 uM
Cytochrome P450 3A4 = Cytochrome P450 3A4 (Homo sapiens, UniProt P08684); test: Inhibition of CYP3A4 in human liver microsomes at 1 uM
Cytochrome P450 1A2 = Cytochrome P450 1A2 (Homo sapiens, UniProt P05177); test: Inhibition of CYP1A2 in human liver microsomes at 1 uM
Liver microsome = test: Half life in human liver microsomes

inhibition (INH) (Cytochrome P450 2D6) [%] | inhibition (INH) (Cytochrome P450 2C9) [%] | inhibition (INH) (Cytochrome P450 3A4) [%] | inhibition (INH) (Cytochrome P450 1A2) [%] | t1/2 (Liver microsome) [min] | Compound
19 | 89 | 48 | -14 | – | O=C(N[C@H](Cc1c[nH]c2ccccc12)C(=O)Nc1ccncc1)c1ccc(-c2ccc(OCc3ccc(F)cc3)c(F)c2)cc1F
14 | 76 | 67 | -13 | – | CC(=O)N1CCN(c2ccc(C(=O)N[C@H](Cc3c[nH]c4ccccc34)C(=O)Nc3ccncc3)c(F)c2)CC1
57 | 95 | 85 | 6 | 6 | O=C(N[C@H](Cc1c[nH]c2ccccc12)C(=O)Nc1ccncc1)c1ccc(N2CCN(c3cccc(Cl)c3)CC2)cc1F
